Test results from ChEMBL document CHEMBL1129520 (J Med Chem, 1996).

Protein sequences, listed by entry. Tags and fused reporters are not part of them. Lines headed by an entry give the natural chain unless they say otherwise; changes in a name come on top.
UniProt Q9QYN8: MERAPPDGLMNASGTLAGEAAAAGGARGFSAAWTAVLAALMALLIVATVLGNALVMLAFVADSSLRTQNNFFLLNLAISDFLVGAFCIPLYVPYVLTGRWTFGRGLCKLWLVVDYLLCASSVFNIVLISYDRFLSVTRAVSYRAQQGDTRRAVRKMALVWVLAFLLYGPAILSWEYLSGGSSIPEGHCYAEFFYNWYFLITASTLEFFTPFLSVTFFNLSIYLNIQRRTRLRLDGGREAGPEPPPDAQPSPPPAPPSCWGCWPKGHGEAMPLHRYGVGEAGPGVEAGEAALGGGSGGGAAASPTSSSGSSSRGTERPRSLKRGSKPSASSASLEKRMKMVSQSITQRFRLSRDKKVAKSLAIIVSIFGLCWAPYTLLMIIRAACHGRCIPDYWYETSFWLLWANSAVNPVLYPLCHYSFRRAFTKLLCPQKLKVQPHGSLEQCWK

Target: Histamine H3 receptor (Rattus norvegicus, UniProt Q9QYN8)
Assay: Binding affinity towards Histamine H3 receptor on synaptosomes from rat cerebral cortex
Format: subcellular, Brain
Procedure, shortened: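 Rat cerebral cortex homogenized in ice-cold 50 mM Na2HPO4/KH2PO4, pH 7.5, then washed membranes after two differential centrifugations. Incubated 60 min at 25 °C with [3H]-(R)-α-methylhistamine and drugs at various concentrations. Stopped by ice-cold dilution, vacuum-filtered through glass-fibre filters, scintillation counted. Nonspecific binding defined with 3 µM thioperamide.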

Ki: 0.0398 µM
SMILES: Cc1[nH]cnc1CSCCNC(=N)NCCCc1c[nH]cn1 [IMPROMIDINE]
